By UniProt entry, the sequences of proteins in these tests, tags left out. Where a name states a change or a piece, a line headed by the entry shows the natural chain unless it says otherwise.
UniProt P35414: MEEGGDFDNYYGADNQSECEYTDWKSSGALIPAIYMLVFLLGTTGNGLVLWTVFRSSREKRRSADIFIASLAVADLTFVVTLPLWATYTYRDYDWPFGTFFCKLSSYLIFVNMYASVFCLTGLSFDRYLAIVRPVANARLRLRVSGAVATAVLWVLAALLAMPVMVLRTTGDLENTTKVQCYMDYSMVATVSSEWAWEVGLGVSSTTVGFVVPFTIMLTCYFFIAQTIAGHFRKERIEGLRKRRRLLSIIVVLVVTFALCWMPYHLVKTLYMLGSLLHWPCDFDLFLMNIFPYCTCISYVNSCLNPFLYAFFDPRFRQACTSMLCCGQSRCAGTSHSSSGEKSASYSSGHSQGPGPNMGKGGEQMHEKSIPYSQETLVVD

Only a part is listed here, and it is no random draw. Calls of active or inactive are those of the source.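 Rule for the calls: active = activation more than six SD over the plate average, tested at 20 µM; inactive = the rest.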
What follows are compounds tested against Apelin receptor (Homo sapiens) (UniProt P35414) (assay: APJ activation via beta-arrestin recruitment – CHO-K1 cells, PathHunter beta-arrestin, luminescence, primary screen (AID 2520)). Conditions: at 20 µM, active compounds read high, 0% DMSO wells, 100% apelin.
In short: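 Incubation: overnight seeding, 90 min compound at 25 °C, 1 h detection; test system: PathHunter CHO-K1 APJ (AGTRL-1) beta-arrestin reporter cells; amount: 1000 cells/well; doses: one dose, 20 µM compound, 1% DMSO; measured by: beta-gal luminescence; measure: agonist-driven arrestin binding to APJ; benchmarks: negative DMSO alone, positive Apelin-13 at 10 nM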
In the case of O=C(/C=C/c1ccccc1)OC1CN2CCC1CC2 (stereo not drawn), the activation is reported as inactive: -1.6%. In the case of O=P1(Nc2ncccn2)COc2ccccc2OC1, the activation is reported as inactive: 6.79%. In the case of Nc1cccc([As](=O)(O)c2ccccc2)c1, the activation is reported as inactive: -5.1%. O=P1(Nc2ccc(Br)cn2)COc2ccccc2OC1 was tested, and the activation was inactive: -2.52%. With NS(=O)(=O)c1cccc(NC(=O)COC(=O)C(O)(c2ccccc2)c2ccccc2)c1 the activation was inactive: -2%. With O=[As](O)(c1cccs1)c1cccs1 the activation was inactive: -3.24%. In the case of Cc1ccc(OCC(=O)OC2CN3CCC2CC3)cc1 (stereo not drawn), the activation is reported as inactive: 0.601%. With O=P1(Nc2ccccn2)COc2ccccc2OC1 the activation was inactive: -0.62%. In the case of CCC1=CC2Cc3nc4ccc(Cl)cc4c(N)c3C(C1)C2 (stereo not drawn), the activation is reported as inactive: 16.9%. In the case of CCOP(=O)(NC(=NC(C)c1ccccc1)NC(C)c1ccccc1)OCC (stereo not drawn), the activation is reported as inactive: -0.963%. With CN(CCCl)Cc1cc(Cl)c(NC2=NCCN2)c(Cl)c1 the activation was inactive: -6.02%. For CCOP(=O)(Nc1ccc(C)cn1)OCC, the activation was inactive: -3%. In the case of Clc1n[nH]nc1-c1nn[nH][15n]1, the activation is reported as inactive: -3.73%. With CC(C)(C)C(=O)NC(Sc1ncccn1)C(Cl)(Cl)Cl (stereo not drawn) the activation was inactive: -0.628%. COc1ccccc1CNC(=O)COC(=O)C(O)(c1ccccc1)c1ccccc1 was tested, and the activation was inactive: -4.58%. CC(C)/C=N\N=C(\N)N[N+](=O)[O-] was tested, and the activation was inactive: -1.17%. For CN(C(=O)Cc1ccc(Cl)c(Cl)c1)[C@@H]1CCCC[C@H]1N1CCCC1, the activation was inactive: -5.02%. In the case of O=[As](O)(c1ccccc1Br)c1ccccc1Br, the activation is reported as inactive: 1.6%. For CC1(CBr)Cn2c(nc3ccccc3c2=O)S1 (stereo not drawn), the activation was inactive: -1.65%. For COP1(=S)c2c(C)nn(CCC#N)c2N=C(c2ccc(F)cc2)N1C (stereo not drawn), the activation was inactive: 1.12%. With O=C(COc1ccccc1)OC1CN2CCC1CC2 (stereo not drawn) the activation was inactive: 3.9%. In the case of O=C(Nc1ccncc1[N+](=O)[O-])c1ccc([N+](=O)[O-])cc1[N+](=O)[O-], the activation is reported as inactive: 7.76%. O=C(OC1CN2CCC1CC2)c1cccc([N+](=O)[O-])c1 (stereo not drawn) was tested, and the activation was inactive: -2.18%. For CCOC(=O)c1ccc(NC(=O)C(C)(CCl)SC)cc1 (stereo not drawn), the activation was inactive: -3.2%. CCC(C)N(CC(C)C)C(=S)SC(NC(C)=O)C(Cl)(Cl)Cl (stereo not drawn) was tested, and the activation was inactive: -5.93%. In the case of CCOC(=O)Nc1ccc([As](=O)(O)O)c(O)c1, the activation is reported as inactive: -2.73%. CCCCOc1ccc(C(=O)NCC2(N3CCCCC3)CCCCC2)cc1OC was tested, and the activation was inactive: -4.28%. For Cc1cc(SC(NC(=O)c2ccccc2)C(Cl)(Cl)Cl)nc(C(C)C)n1 (stereo not drawn), the activation was inactive: -2.65%. For CCOC(=O)Nc1cccc([As](=O)(O)O)c1, the activation was inactive: -1.46%. In the case of O=P(Nc1ccccn1)(c1cccc2ccccc12)c1cccc2ccccc12, the activation is reported as inactive: 2.39%. For Cc1cc(SC(NC=O)C(Cl)(Cl)Cl)ncn1 (stereo not drawn), the activation was inactive: 0.315%. With O=[As](O)(c1ccc(O)cc1)c1ccccc1O the activation was inactive: -2.01%. C[As](=O)(O)c1cccc(C(=O)O)c1 was tested, and the activation was inactive: -1.75%. With COc1cc(C(=O)NCC2(N3CCOCC3)CCCCC2)ccc1OCC(C)C the activation was inactive: -3.33%. In the case of Cc1ccc(OP(=O)(Nc2ccc([N+](=O)[O-])cn2)Oc2ccc(C)cc2)cc1, the activation is reported as inactive: -0.781%. Cc1ccc2nc3c(c(C)c2c1)CC(C(Cl)Cl)S3 (stereo not drawn) was tested, and the activation was inactive: -3.03%. For ClCCSc1nnc(-c2cccnc2)o1, the activation was inactive: 3.66%. CC(C)c1ccc(OP(=O)(Nc2ccccn2)Oc2ccccc2F)cc1 (stereo not drawn) was tested, and the activation was inactive: 0.67%. For O=C(OC1CN2CCC1CC2)c1cccc2[nH]cnc12 (stereo not drawn), the activation was inactive: 3.2%. CCN(CC)C(=S)SC(NC=O)C(Cl)(Cl)Cl (stereo not drawn) was tested, and the activation was inactive: -1.29%. In the case of CC(C)NC(=O)NP(=O)(Oc1ccccc1)Oc1ccccc1, the activation is reported as inactive: -2.37%. For O=[N+]([O-])c1cc([N+](=O)[O-])c(-c2ccn[nH]2)s1, the activation was inactive: 5.78%. For Cc1c2c(nc3ccccc13)SC(C(Cl)Cl)C2 (stereo not drawn), the activation was inactive: -3.73%. With O=C(OC1CN2CCC1CC2)C12CC3CC(CC(C3)C1)C2 (stereo not drawn) the activation was inactive: -3.24%. In the case of Cc1cc(=O)[nH]c(N[N+](=O)[O-])n1, the activation is reported as inactive: -3.49%. For COc1ccc2nc(NP(=O)(c3ccccc3)c3ccccc3)sc2c1, the activation was inactive: -2.34%. With COc1cc(I)ccc1[As](=O)(O)O the activation was inactive: -2.27%. In the case of COc1ccc(N/C(=N/P(=O)(N2CCOCC2)N2CCOCC2)N2CCOCC2)cc1, the activation is reported as inactive: 0.0507%.

From PubChem BioAssay AID2520 (Sanford-Burnham Center for Chemical Genomics, 2010)
